One experiment concerns the target Human KIF18A (1-376aa) (Homo sapiens, UniProt Q8NI77). The experiment can be described thus: KIF18A enzyme activity assay (ADP-Glo Kinase Assay). Conditions: read-out: KIF18A inhibitory activity IC50, numeric value, ATP 70 µM, microtubule 50 µg/mL. As for the experimental part: Based on the ADP-Glo™ Kinase Assay, the ADP amount generated in the reaction was determined to reflect the enzyme activity of KIF18A.
Human KIF18A (1-376aa) protease used in the experiments, expressed by Shanghai Panchao Biotechnology Co., Ltd., was stored at -80 °C (no more than 5 freeze-thaw cycles).
The assay kit (ADP-Glo™ Kinase Assay) was purchased from Promega (Cat. No. V9101) and stored at -30 °C. The kit determines the enzyme activity by measuring ADP generated in enzyme reaction. The KIF18A enzyme and ATP generate ADP. The remaining ATP in this reaction is consumed by the ADP-Glo reagent, while the ADP generated by the KIF18A enzyme reaction is converted back to ATP by the assay reagent. The ATP then reacts with luciferin in the presence of Ultra-Glo™ luciferase, producing luminescence. The luminescent signal is positively correlated with the enzyme activity of KIF18A.
Compounds were each subjected to 3-fold serial dilution starting from 10 µM to obtain 10 concentration points. The compounds and pure DMSO (control) were pipetted into wells of a 384-well plate using an Echo instrument, and the total volume of compound and DMSO was 100 nL; sample concentrations of gradient dilution were obtained by the instrument based on different ratios. Preparation of a KIF18A enzyme reaction buffer: […], 10 mM MgCl2, 0.01% Pluronic F-68, 1 µM Taxol, and 50 µg/mL Microtubule. KIF18A and the enzyme reaction buffer were mixed, and then the mixed solution was added to the 384-well plate and incubated at room temperature for 15 min. ATP (Km 70 µM) was then added to the mixed solution, and the mixed solution was incubated at room temperature for 15 min. 10 µL of ADP-Glo™ Reagent was well mixed with 10 µL of the mixed solution, and the mixture was incubated at room temperature for 40 min. Finally, 20 µL of ADP-Glo™ Detection Reagent was added, and the mixture was incubated at room temperature for 30 min. The chemiluminescent signal in each well was measured using an Envision plate reader (PerkinElmer, emission wavelength: 400-700 nm). In the experiment, 1 column of wells with no compound and no enzyme (chemiluminescence value was taken as [RLU]background) and 1 column of wells with enzyme but no compound (chemiluminescence value was taken as [RLU]enzyme) were provided. The chemiluminescence value of the compound adding group was taken as [RLU]cpd. The inhibition rate of the compound on proliferation was calculated according to the following equation: inhibition rate (%) = ([RLU]enzyme - [RLU]cpd)/([RLU]enzyme - [RLU]background) × 100%, and the inhibitory activity IC50 value of the compound on the enzyme activity was calculated using a four-parameter Logistic Model method. In the following equation, x represents the logarithmic form of the concentration of compound, and f (x) represents an effect value (inhibition rate of enzyme activity at the concentration): F(x) = (A + ((B - A)/(1 + ((C/x)^D)))). A. B, C, and D are four parameters. IC50 values were further calculated as the concentration of compound required for 50% inhibition of enzyme activity in the best-fit curve using Xlfit, and the KIF18A inhibitory activity of the compounds of the present disclosure is shown in Table 1. Table 1. KIF 18A inhibitory activity of compounds of the present disclosure

Chains of the proteins cited; added tags and fusions are not shown. Residues count along the entry.
UniProt Q8NI77, 1-376 limits assumed: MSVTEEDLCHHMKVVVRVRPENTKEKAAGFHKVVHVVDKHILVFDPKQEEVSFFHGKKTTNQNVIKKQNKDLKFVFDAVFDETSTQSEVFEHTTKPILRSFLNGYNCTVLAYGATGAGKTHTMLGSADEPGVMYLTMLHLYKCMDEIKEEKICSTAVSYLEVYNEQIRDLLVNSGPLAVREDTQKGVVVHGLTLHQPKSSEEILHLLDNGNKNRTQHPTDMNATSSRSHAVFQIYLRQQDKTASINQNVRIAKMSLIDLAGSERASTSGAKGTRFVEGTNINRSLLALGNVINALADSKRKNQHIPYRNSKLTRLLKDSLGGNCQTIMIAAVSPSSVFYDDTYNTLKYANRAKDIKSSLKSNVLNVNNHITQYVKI

The subject of a further experiment is OVCAR3 cells. The experiment can be described thus: Inhibition of proliferation of OVCAR-3 cells (Cell-Titer Glo). Conditions: read-out: OVCAR3 proliferation inhibition IC50, numeric value, 3 days incubation. An excerpt: Cells and materials: The human ovarian cancer cell line OVCAR3 was purchased from ATCC (Cat. No. HTB-161™), RPMI 1640 medium (Gibco#A1049101), penicillin-streptomycin (Gibco#15140122), and 0.25% Trypsin-EDTA (Gibco#25200056) were purchased from Gibco (U.S.), bovine insulin (Yeasen#40107ES60) was purchased from Yeasen, 384-well plates (Corning#CLS3765) were purchased from Corning (U.S.), Cell-Titer Glo reagent (Promega#G7568) was purchased from Promega (U.S.), and Echo was purchased from PerkinElmer.
Cell culture: OVCAR3 cells were cultured in RPMI 1640 complete medium (RPMI 1640 medium containing 20% fetal bovine serum, 10 µg/mL bovine insulin, and 1% penicillin-streptomycin) in an incubator (37 °C, 5% CO2), and the cells were able to be used in experiments when in the logarithmic growth phase.
Cell proliferation activity test: The Cell-Titer Glo reagent was used to test the compound for inhibition of proliferation of the OVCAR3 cell strain. The compound formulated with DMSO and pure DMSO (control) were each added to a 384-well plate using an Echo instrument; the compound was subjected to 3-fold serial dilution starting from 30 µM to obtain 11 concentration points, and the volume of the compound or DMSO added was 100 nL.
OVCAR3 cells were digested and resuspended in RPMI 1640 complete medium, and the suspension was added to the 384-well plate (1000 cells/50 µL/well) to be well mixed with the compound. The mixture was incubated in an incubator (37 °C, 5% CO2) for 3 days. The Cell-Titer Glo reagent was added at 25 µL/well, and the resulting mixture was well mixed by shaking and then incubated for 10 min. The Cell-Titer Glo readings were measured with a Multimode Plate Reader (brand: PerkinElmer; model: SIC-PV-018).
A negative control group (Bottom) was set, and the negative control group was medium wells with 0.2% DMSO added and was defined as 100% proliferation inhibition; the positive control group (Top) was OVCAR3 cell wells with 0.2% DMSO added.
The percent proliferation inhibition (%Inhibition) was calculated, and the curves were fit using the four-parameter equation, Y = Bottom + (Top - Bottom)/(1 + (IC50/X)^HillSlope), to obtain the proliferation inhibition IC50 of the compound. Percent inhibition: %Inhibition = (1 - (Signal - Bottom)/(Top - Bottom)) × 100%. • Signal: Cell-Titer Glo reading of wells with compound added; • Bottom: Cell-Titer Glo reading of negative control wells; • Top: Cell-Titer Glo reading of positive control wells.

Structures are written as SMILES.

Turning to `N#Cc1ccc(NC(=O)c2ccc(NS(=O)(=O)CCO)cc2N2CCC3(CC2)CC3)n2nc3c(c12)CCC(F)(F)CC3`, the IC50 at Human KIF18A (1-376aa) is 0.125 µM.

Consider `CC12c3nc4c(NC(=O)c5ccc(NS(=O)(=O)CCO)cc5N5CCC6(CC5)CC6)cccc4n3CC1C2(F)F` (stereo not shown), for which the IC50 amounted to 0.0291 µM with OVCAR3 cells and 0.0213 µM on Human KIF18A (1-376aa).

For `O=C(Nc1cccc2c1c(F)c1n2CCCCC1)c1ccc(NS(=O)(=O)CCO)cc1N1CCC2(CC1)CC2`, the IC50 at Human KIF18A (1-376aa) is 0.11 µM.

Turning to `O=C(Nc1ccc(O)c2c3c(nn12)CCCCC3)c1ccc(NS(=O)(=O)CCO)cc1N1CCC2(CC1)CC2`, the IC50 at Human KIF18A (1-376aa) is 0.0295 µM.

On to `O=C(Nc1cccc2c3c(nn12)CCCC(F)(F)C3)c1ccc(NS(=O)(=O)CCO)cc1N1CCC2(CC1)CC2`, for which the IC50 worked out at 0.0881 µM with OVCAR3 cells and 0.0191 µM at Human KIF18A (1-376aa).

As to `N#Cc1ccc(NC(=O)c2ccc(NS(=O)(=O)CCO)cc2N2CCC3(CC2)CC3)n2nc3c(c12)CCCCC3`, the IC50 at Human KIF18A (1-376aa) turned out to be 0.0811 µM.

Regarding `O=C(Nc1cc(O)cc2c3c(nn12)CCCCC3)c1ccc(NS(=O)(=O)CCO)cc1N1CCC2(CC1)CC2`, the IC50 on Human KIF18A (1-376aa) was 0.086 µM.

Turning to `O=C(Nc1cccc2c1nc1n2CC2CCC12)c1ccc(NS(=O)(=O)CCO)cc1N1CCC2(CC1)CC2` (stereo not shown), the IC50 in the experiment with OVCAR3 cells came to 0.073 µM; at Human KIF18A (1-376aa), 0.0523 µM.

As for `COc1ccc(NC(=O)c2ccc(NS(=O)(=O)CCO)cc2N2CCC3(CC2)CC3)c2nc3n(c12)CC1C3C1(F)F` (stereo not shown), the values for the IC50 with OVCAR3 cells and at Human KIF18A (1-376aa) were 0.00662 µM and 0.0214 µM, respectively.

With `O=C(Nc1cccc2c3c(nn12)CCC(F)(F)CC3)c1ccc(NS(=O)(=O)CCO)cc1N1CCC2(CC1)CC2`, the IC50 turned out to be 0.0198 µM with OVCAR3 cells and 0.0146 µM at Human KIF18A (1-376aa).

On to `CS(=O)(=O)Nc1ccc(C(=O)Nc2cccc3c4c(nn23)CCC(F)(F)CC4)c(N2CCC3(CC2)CC3)c1`, for which the IC50 on Human KIF18A (1-376aa) worked out at 0.122 µM.

As for `O=C(Nc1ccnc2c3c(nn12)CCC(F)(F)CC3)c1ccc(NS(=O)(=O)CCO)cc1N1CCC2(CC1)CC2`, the IC50 at Human KIF18A (1-376aa) is 0.0337 µM.

In the case of `C=CS(=O)(=O)Nc1ccc(C(=O)Nc2cccc3c4c(nn23)CCC(F)(F)CC4)c(N2CCC3(CC2)CC3)c1`, the IC50 at Human KIF18A (1-376aa) was 0.286 µM.

Take `CCS(=O)(=O)Nc1ccc(C(=O)Nc2cccc3c4c(nn23)CCC(F)(F)CC4)c(N2CCC3(CC2)CC3)c1`: on Human KIF18A (1-376aa), the IC50 amounted to 0.182 µM.

With `Cc1cc(NC(=O)c2ccc(NS(=O)(=O)CCO)cc2N2CCC3(CC2)CC3)n2nc3c(c2n1)CCC(F)(F)CC3`, the IC50 on Human KIF18A (1-376aa) came out at 0.0489 µM.

Take `O=C(Nc1cccc2c3c(nn12)CCC(O)CC3)c1ccc(NS(=O)(=O)CCO)cc1N1CCC2(CC1)CC2` (stereo not shown): on Human KIF18A (1-376aa), the IC50 came out at 0.0748 µM.

Consider `CCC1Cc2nc3c(NC(=O)c4ccc(NS(=O)(=O)CCO)cc4N4CCC5(CC4)CC5)cccc3n2C1` (stereo not shown), for which, at Human KIF18A (1-376aa), the IC50 stood at 0.0221 µM.

Regarding `O=C(Nc1ccc(C(F)(F)F)c2c3c(nn12)CCCCC3)c1ccc(NS(=O)(=O)CCO)cc1N1CCC2(CC1)CC2`, the IC50 at Human KIF18A (1-376aa) is 0.124 µM.

On to `CCC1CCn2c1nc1c(NC(=O)c3ccc(NS(=O)(=O)CCO)cc3N3CCC4(CC3)CC4)cccc12` (stereo not shown), for which, at Human KIF18A (1-376aa), the IC50 was determined as 0.0255 µM.

For the molecule `Cc1cc(NC(=O)c2ccc(NS(=O)(=O)CCO)cc2N2CCC3(CC2)CC3)n2nc3c(c2n1)CCCCC3`, the IC50 at Human KIF18A (1-376aa) was determined as 0.0514 µM.

Take `O=C(Nc1ccc(Cl)c2c3c(nn12)CCCCC3)c1ccc(NS(=O)(=O)CCO)cc1N1CCC2(CC1)CC2`: the IC50 with OVCAR3 cells was found to be 0.0704 µM; at Human KIF18A (1-376aa), 0.0447 µM.

As to `O=C(Nc1ccnc2c3c(nn12)CCCCC3)c1ccc(NS(=O)(=O)CCO)cc1N1CCC2(CC1)CC2`, the IC50 on Human KIF18A (1-376aa) is 0.0423 µM.
